{"source": "patent US20240368664A1", "about": "“LIVE YEAST BIOSENSORS AND METHODS OF USE THEREOF” (priority 2021, published 2024)", "test": "Cyclic voltammetry of peptides and copper-peptide complexes", "assay_type": "physicochemical", "settings": "500 μM peptide in 10 mM KCl; scan rates 0.2, 0.1, 0.05 V/s", "data": [{"compound": "CC(C)C[C@H](NC(=O)[C@H](CCCNC(=N)N)NC(=O)[C@H](Cc1ccccc1)NC(=O)CN)C(=O)N[C@H](C(=O)N[C@@H](CC(N)=O)C(=O)N[C@@H](Cc1ccccc1)C(=O)NCC(=O)N[C@@H](Cc1ccc(O)cc1)C(=O)N[C@@H](Cc1ccccc1)C(=O)N[C@@H](CCC(=O)O)C(=O)N1CCC[C@H]1C(=O)NCC(=O)O)[C@@H](C)O", "note": "[CaPep]", "values": [{"measurement": "potential peaks in cyclic voltammogram", "value": "None of the tested peptides showed any unique and distinguishable potential peaks"}]}]}
